Source: PubChem BioAssay
miR-21 reporter: raises the signal of a miR-21 reporter | HeLa miR-21 FLuc reporter, luciferase, 48 h | Potency, µM (highest dose often 38.3 µM) | 340,000 tested, under 10 active | AID 2288; active = well fitted rising curve with a large enough effect; inconclusive = small, poorly fitted or top-dose-only effect; inactive = no such curve, though single readings can be large or run the other way;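 also: miR-21 action dims this reporter so a rising signal means less miR-21 action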
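Using DMEM plus 10% FBS, HeLa miR-21-FLuc cells are incubated with test compounds (final up to about 40uM) for 48 hours; firefly luciferase signal is then imaged following reagent-mediated lysis.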
G9a block: G9a (human) methyltransferase inhibition; Q96KQ7; G9a H3K9 monomethylation, AlphaScreen, 2 h; Potency, µM (top dose mostly 102 µM), most hits filed as inhibitors; hit rate 8.8% among 350,000; further: nearly all actives have a fitted effect of over 75% in size
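Quantitative HTS format: methyltransferase activity on a biotin-tagged H3K9 peptide is measured by AlphaScreen, using a rabbit anti-monomethyl-H3K9 antibody with streptavidin donor and anti-IgG acceptor beads. Final levels are 20 nM enzyme, 500 nM peptide, 20 uM SAM; 2 h RT.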
Lamin A splicing: LMNA splicing modulation; HeLa LMNA splicing GFP/RFP minigene ratio, 48 h; Potency, µM (top dose mostly 46.1 µM), hits mostly inhibitors; hit rate 0.01% among 200,000; active means well fitted inhibition curve with a large enough effect in the signal ratio, with a control signal flat, not every such curve was filed as active; inconclusive means small, poorly fitted or top-dose-only effect, or effect the other way, or a change in a side signal; the % refers to the signal ratio
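Read-out is the ratio of GFP to DsRed2 object intensity, acquired by 488 nm laser-scanning cytometry on HeLa lamin A-EGFP minigene reporter cells. Compound incubation 48 hrs at 37 °C in Opti-MEM with 2% FBS; DMSO 0.5% final.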
Sfp inh: Sfp phosphopantetheinyl transferase inhibition | hit rate 3.5% among 310,000 | AID 1490 | Q9F4F7 | Potency, µM, most hits filed as inhibitors | Biochemical Sfp PPTase activity, qHTS;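 further: the enzyme is Sfp with the accession as filed and its product quenches rhodamine fluorescence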
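Fluorescence-quenching assay with 15 nM Sfp, 5 uM rhodamine-CoA and 12.5 uM BHQ-2-labelled ybbR peptide in pH 7.6 Hepes/MgCl2 buffer. Enzyme was pre-incubated with compound for 15 min at room temperature. Rate was taken from the 30-min fluorescence change (525/598 nm).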
ALDH1A1 inh: ALDH1A1 (human) enzyme inhibition. P00352. Purified ALDH1A1, NADH fluorescence, propionaldehyde substrate. Potency, µM (series often up to 75.3 µM), hits mostly inhibitors. hit rate 7.3% among 220,000. AID 1030; active means well fitted inhibition curve with a large enough effect, not every such curve was filed as active; inconclusive means small, poorly fitted or top-dose-only effect, or another doubt; inactive means no such curve, though single readings can be large or run the other way
KDM4E inh: inhibitors of human JMJD2E histone demethylase | JMJD2E catalytic domain, FDH-coupled NADH fluorescence (FDH is formaldehyde dehydrogenase) | Potency, µM (doses to about 57.1 µM), hits mostly inhibitors | hit rate 1.6% among 230,000 | B2RXH2; active means well fitted inhibition curve with a large enough effect, not every such curve was filed as active; inconclusive means small, poorly fitted or top-dose-only effect, or another doubt; inactive means no such curve, though single readings can be large or run the other way; further: nearly all actives have a fitted effect of over 50% in size
Hits are given with their value; i = inactive; ? = inconclusive; nt = not tested or not shown; [ ] = another dose, or the depositor's remark. In the library only some 13% were active in any assay of this set; here they are far more common. Unless noted, the call rests on the fitted dose curve; in most records, active means well fitted curve in the direction sought with a large enough effect; inconclusive means small, poorly fitted or top-dose-only effect, or another doubt; inactive means no such curve, though single readings can be large; an effect the other way counts as inactive or inconclusive.

SMILES	miR-21 reporter	G9a block	Lamin A splicing	Sfp inh	ALDH1A1 inh	KDM4E inh
COc1ccc(NS(=O)(=O)c2ccc(N3CCOCC3)c(NC(=O)c3ccccc3Cl)c2)cc1	i	i	i	i	i	i
C=CCNC(=S)Nc1cc(S(=O)(=O)N2CCOCC2)ccc1-n1cncn1	i	?	i	?	4.5µM	i
O=C(Nc1cc(S(=O)(=O)Nc2ccc(Cl)cc2)ccc1N1CCCCC1)c1ccc(F)cc1Cl	?	10µM	?	?	32µM	?
O=C(Nc1cc(S(=O)(=O)N2CCOCC2)ccc1N1CCCC1)c1ccc(Cl)cc1	nt	1.8µM	nt	nt	nt	nt
O=C(Nc1cc(S(=O)(=O)N2CCOCC2)ccc1N1CCCCC1)c1ccccc1	nt	i	nt	nt	nt	nt
COc1cc(S(=O)(=O)N2CCCCC2)ccc1NC(=O)c1ccccc1Cl	i	i	?	i	2µM	i
O=C1CN(C(=O)NCC(=O)N[C@@H](C(=O)O)c2ccccc2)c2ccccc2N1	i	i	nt	i	nt	nt
COc1ccc2cc(/C(C)=N/NC(=S)Nc3cc(S(=O)(=O)N4CCOCC4)ccc3N3CCOCC3)ccc2c1	i	i	i[9.22 µM]	i	?	?
COc1ccc(NS(=O)(=O)c2ccc(N3CCOCC3)c(NC(=O)c3ccc(OC)cc3)c2)cc1	i	i	?	i	i	?
COC(=O)CCC(=O)Nc1cc(S(=O)(=O)Nc2ccc(Cl)cc2)ccc1N1CCOCC1	i	?	i	i	20µM	i
O=S(=O)(c1ccc(Cl)c(NC(=S)N/N=C/c2c(F)cccc2F)c1)N1CCOCC1	i	i	i	i	i	i
C/C(=N\NC(=S)Nc1cc(S(=O)(=O)N2CCOCC2)ccc1Cl)c1ccc(N2CCOCC2)cc1	i	32µM	i	i	?	?
O=S(=O)(c1ccc(Cl)c(NC(=S)Nc2ccccc2N2CCOCC2)c1)N1CCOCC1	i	i	i	?	20µM	i
C/C(CCC(C)C)=N\NC(=S)Nc1cc(S(=O)(=O)N2CCOCC2)ccc1N1CCOCC1	i	25µM	nt	i	i	i
CCCC(C)C(=O)Nc1cc(S(=O)(=O)N2CCCCC2)ccc1N1CCOCC1 (stereo not drawn)	nt	i	nt	nt	nt	nt
Cc1ccccc1Nc1c(-c2c(F)cccc2Cl)nc2ccc(Br)cn12	i	i	nt	nt	nt	nt
N#C/C(=C\c1ccccc1)C(=O)Nc1cc(S(=O)(=O)N2CCOCC2)ccc1N1CCCC1	i	45µM	?	i	i	i
O=C(Nc1ccccc1N1CCCC1)c1cc(S(=O)(=O)N2CCOCC2)ccc1Cl	nt	50µM	nt	nt	nt	nt
O=C(Nc1cc(S(=O)(=O)N2CCOCC2)ccc1N1CCCC1)c1ccc2c(c1)S(=O)(=O)c1ccccc1C2=O	i	nt	i	10µM	2.2µM	i
O=S(=O)(Nc1ccc(N2CCCCC2)cc1)c1ccc(F)c(F)c1	i	13µM	?	i	i	i
Cc1nc(-c2ccc(S(=O)(=O)NCc3ccccc3Cl)cc2)co1	i	i	i	nt	nt	nt
Cc1nc2c(c(C)c1CCC(=O)Nc1cccc(C(F)(F)F)c1)c(=O)n(C)c(=O)n2C	i	i	nt	nt	nt	nt
O=c1[nH][nH]c(-c2ccccc2)c1C=Nc1ccc(OC(F)(F)F)cc1	i	?	i[9.22 µM]	i	i	i
COc1ccc(Cl)cc1Nc1ccc2cc(S(=O)(=O)N3CCCCC3)ccc2n1	i	5µM	nt	nt	nt	nt
CCOc1ccccc1NC(=O)C1CCN(S(=O)(=O)c2ccc(Br)cc2)CC1	i	i	i	nt	nt	nt
SMILES	miR-21 reporter	G9a block	Lamin A splicing	Sfp inh	ALDH1A1 inh	KDM4E inh
CCOc1cc(N2CCOCC2)c(OCC)cc1NC(=O)c1cc(S(=O)(=O)N2CCOCC2)ccc1Cl	nt	50µM	nt	nt	nt	nt
Cc1cc(C(=O)Nc2ccccc2N2CCOCC2)c(C)o1	i	56µM	nt	?	?	i
CCOc1ccccc1NC(=O)C1CCN(S(=O)(=O)c2ccc(OC)c(OC)c2)CC1	i	40µM	?	i	i	i
O=C(CN1C(=O)NC(c2ccccc2)(c2ccccc2)C1=O)c1c[nH]c2ccccc12	i	i	nt	i	i	i
Cc1cccc(NC(=O)C2CCN(c3cnccn3)CC2)c1	i	i	nt	nt	nt	nt
CCOc1cc(N2CCOCC2)c(OCC)cc1NC(=O)CCS(=O)(=O)c1ccc(Cl)cc1	i	22µM	i	i	i	i
CCN1CCN(S(=O)(=O)c2ccc(Cl)c(C(=O)N(C)Cc3cccs3)c2)CC1	nt	i	nt	nt	nt	nt
N#Cc1cccc(NC(=O)CNc2cc(S(=O)(=O)N3CCOCC3)ccc2N2CCCC2)c1	nt	i[0.501 µM]	nt	nt	nt	nt
